The chains behind the UniProt entries cited, without tags or fusion partners.
UniProt P35462, whole entry: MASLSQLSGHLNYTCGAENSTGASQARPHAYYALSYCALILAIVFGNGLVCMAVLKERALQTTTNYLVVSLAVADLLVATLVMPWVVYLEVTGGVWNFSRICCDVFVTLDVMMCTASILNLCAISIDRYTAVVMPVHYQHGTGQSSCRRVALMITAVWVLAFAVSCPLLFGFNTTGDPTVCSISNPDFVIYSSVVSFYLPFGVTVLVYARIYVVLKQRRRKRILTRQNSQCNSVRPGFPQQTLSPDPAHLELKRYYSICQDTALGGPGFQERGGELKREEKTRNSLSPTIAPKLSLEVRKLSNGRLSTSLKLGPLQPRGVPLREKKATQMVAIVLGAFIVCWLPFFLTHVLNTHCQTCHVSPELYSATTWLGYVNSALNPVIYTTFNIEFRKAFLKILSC

According to ChEMBL document CHEMBL1128298, “Synthesis and evaluation of pharmacological and pharmacokinetic properties of monopropyl analogs of 5-, 7-, and 8-[[(trifluoromethyl)sulfonyl]oxy]-2-aminotetralins: central dopamine and serotonin receptor activity” (J Med Chem, 1995):

Biological target: D(3) dopamine receptor (Homo sapiens, UniProt P35462)
Experiment: In vitro binding affinity towards Dopamine receptor D3 by using [3H]spiperone as radioligand
How it was run: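 Radioligand competition binding at cloned mammalian receptors expressed in CHO-K1 cells, 1 h at room temperature, pH 7.4. Ligands: 5-HT1A [3H]-8-OH-DPAT 1 nM in 50 mM Tris/10 mM MgCl2. 5-HT1Dα/β [3H]-5-HT 1.7 nM in Tris/MgCl2/EDTA/0.1% ascorbate. D2 [3H]U86170 1 nM in 20 mM HEPES/10 mM MgSO4. D3 [3H]spiperone 0.5 nM in HEPES/MgCl2/NaCl/EDTA. Filtration and scintillation counting; 11 concentrations in duplicate; IC50 by nonlinear fit converted to Ki via Cheng–Prusoff.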

CCCN(CCC)[C@@H]1CCc2cccc(O)c2C1
Ki: 0.179 µM
